Consider two molecules from ChEMBL document CHEMBL5442175, “EUbOPEN Chemogenomics Library - PDSP Secondary Binding” (2024).

Sequences of proteins named here, by UniProt entry; tags and fusion partners are left off. A change or cut given only in a name is not applied to a line headed by its entry.
UniProt P21917, whole entry, looked up: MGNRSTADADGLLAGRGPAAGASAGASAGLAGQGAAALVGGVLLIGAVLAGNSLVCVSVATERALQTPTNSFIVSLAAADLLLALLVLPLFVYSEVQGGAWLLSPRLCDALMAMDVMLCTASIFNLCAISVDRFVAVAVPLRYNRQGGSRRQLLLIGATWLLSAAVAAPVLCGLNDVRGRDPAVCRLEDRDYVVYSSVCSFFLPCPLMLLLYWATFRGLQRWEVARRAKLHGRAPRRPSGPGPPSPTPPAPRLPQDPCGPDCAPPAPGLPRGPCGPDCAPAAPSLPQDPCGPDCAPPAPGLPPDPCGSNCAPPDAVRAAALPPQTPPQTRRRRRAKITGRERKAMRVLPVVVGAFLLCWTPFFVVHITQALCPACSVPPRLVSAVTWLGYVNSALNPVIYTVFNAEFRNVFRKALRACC
UniProt P14416, whole entry, looked up: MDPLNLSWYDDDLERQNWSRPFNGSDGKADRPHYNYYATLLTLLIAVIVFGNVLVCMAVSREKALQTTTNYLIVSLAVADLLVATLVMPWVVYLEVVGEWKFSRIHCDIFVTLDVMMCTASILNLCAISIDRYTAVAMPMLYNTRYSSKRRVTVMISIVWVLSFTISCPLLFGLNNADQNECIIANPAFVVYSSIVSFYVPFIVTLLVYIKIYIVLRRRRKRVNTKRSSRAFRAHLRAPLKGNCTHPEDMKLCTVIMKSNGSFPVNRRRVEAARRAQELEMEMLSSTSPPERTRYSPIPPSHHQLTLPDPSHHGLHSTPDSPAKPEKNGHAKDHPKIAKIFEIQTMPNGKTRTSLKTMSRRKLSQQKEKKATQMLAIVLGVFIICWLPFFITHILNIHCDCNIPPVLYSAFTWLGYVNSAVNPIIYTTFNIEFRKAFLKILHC
UniProt Q5BJF2, whole entry, looked up: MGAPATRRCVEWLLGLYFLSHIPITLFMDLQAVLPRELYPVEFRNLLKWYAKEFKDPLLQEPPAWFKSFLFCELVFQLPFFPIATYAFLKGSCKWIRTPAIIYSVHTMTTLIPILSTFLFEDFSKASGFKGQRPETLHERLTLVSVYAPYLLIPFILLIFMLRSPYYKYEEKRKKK
UniProt P34969, whole entry, looked up: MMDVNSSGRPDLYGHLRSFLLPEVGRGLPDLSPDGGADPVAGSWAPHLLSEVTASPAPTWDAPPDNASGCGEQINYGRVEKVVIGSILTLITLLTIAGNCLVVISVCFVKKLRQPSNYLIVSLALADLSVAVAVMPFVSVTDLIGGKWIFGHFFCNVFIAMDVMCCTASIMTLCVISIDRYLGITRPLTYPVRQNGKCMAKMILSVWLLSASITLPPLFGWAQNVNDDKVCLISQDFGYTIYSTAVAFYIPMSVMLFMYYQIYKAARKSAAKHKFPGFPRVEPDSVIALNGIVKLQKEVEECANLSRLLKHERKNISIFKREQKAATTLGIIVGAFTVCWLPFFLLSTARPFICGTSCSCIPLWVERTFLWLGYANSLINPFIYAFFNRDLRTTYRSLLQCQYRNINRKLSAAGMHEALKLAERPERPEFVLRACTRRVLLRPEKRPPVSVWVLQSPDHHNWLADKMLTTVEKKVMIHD
UniProt P35368, whole entry, looked up: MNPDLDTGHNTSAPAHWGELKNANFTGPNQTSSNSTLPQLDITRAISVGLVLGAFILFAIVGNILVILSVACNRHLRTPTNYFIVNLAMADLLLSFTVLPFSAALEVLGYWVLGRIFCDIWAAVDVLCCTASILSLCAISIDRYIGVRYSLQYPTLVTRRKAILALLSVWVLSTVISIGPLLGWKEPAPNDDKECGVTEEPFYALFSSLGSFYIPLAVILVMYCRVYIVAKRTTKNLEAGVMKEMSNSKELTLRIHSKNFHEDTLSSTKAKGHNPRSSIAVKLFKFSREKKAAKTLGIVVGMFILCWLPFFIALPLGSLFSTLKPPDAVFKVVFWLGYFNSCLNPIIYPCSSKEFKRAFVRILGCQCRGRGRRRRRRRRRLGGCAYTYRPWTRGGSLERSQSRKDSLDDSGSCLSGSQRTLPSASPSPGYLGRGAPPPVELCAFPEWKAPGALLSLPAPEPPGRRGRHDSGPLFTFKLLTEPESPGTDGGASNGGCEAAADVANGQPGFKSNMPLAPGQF
UniProt P25100, whole entry, looked up: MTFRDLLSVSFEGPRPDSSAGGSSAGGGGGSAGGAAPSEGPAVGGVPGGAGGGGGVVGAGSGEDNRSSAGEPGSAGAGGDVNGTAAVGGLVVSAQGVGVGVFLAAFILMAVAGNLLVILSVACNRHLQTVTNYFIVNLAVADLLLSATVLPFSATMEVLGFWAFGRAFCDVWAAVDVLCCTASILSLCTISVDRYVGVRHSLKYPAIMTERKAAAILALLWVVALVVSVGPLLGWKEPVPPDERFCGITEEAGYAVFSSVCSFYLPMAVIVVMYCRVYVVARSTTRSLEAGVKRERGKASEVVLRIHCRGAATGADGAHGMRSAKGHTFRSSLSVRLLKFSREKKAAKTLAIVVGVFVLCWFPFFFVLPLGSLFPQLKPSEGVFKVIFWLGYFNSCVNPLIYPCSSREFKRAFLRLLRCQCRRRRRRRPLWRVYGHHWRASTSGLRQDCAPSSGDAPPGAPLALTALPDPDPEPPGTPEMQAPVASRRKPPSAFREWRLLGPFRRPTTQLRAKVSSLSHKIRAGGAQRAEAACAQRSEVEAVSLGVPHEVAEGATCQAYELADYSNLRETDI
UniProt P41145: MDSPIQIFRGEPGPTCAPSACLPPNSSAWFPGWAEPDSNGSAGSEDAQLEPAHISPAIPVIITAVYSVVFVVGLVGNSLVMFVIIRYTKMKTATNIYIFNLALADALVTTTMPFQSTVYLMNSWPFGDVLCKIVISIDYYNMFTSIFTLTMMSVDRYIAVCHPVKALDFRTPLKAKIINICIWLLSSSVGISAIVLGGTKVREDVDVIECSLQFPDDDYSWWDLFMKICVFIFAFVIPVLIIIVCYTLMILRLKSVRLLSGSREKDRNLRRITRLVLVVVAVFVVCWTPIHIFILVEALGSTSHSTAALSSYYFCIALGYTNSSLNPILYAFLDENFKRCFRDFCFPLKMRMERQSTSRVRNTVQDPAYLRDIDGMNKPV
UniProt Q01959, whole entry, looked up: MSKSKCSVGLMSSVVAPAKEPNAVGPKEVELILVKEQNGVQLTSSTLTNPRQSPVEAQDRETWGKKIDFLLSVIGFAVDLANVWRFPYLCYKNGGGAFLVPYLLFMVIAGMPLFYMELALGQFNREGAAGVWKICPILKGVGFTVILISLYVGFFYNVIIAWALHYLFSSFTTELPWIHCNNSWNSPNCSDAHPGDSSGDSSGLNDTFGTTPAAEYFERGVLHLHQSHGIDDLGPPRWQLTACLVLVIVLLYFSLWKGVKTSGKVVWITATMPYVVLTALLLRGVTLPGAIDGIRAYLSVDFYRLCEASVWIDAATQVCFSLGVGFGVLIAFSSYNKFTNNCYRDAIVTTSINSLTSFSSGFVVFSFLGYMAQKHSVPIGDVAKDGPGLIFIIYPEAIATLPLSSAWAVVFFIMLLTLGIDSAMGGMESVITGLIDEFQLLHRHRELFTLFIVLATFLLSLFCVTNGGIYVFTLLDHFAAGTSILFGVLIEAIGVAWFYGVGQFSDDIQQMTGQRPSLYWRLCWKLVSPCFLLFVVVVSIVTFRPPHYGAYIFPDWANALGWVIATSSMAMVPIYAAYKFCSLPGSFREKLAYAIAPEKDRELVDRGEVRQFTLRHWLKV
UniProt P08588, whole entry, looked up: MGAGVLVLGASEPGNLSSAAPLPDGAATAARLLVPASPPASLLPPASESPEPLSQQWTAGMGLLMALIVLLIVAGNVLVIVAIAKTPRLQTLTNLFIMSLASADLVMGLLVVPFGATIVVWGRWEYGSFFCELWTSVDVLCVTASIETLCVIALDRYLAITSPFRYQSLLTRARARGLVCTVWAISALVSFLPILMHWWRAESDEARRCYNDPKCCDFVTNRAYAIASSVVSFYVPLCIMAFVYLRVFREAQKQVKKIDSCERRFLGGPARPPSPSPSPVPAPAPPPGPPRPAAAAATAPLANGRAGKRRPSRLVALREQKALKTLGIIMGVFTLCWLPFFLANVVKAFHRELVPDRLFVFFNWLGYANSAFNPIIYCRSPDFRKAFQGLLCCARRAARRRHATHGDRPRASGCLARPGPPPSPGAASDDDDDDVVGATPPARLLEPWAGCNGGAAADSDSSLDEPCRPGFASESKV
UniProt P18089, whole entry, looked up: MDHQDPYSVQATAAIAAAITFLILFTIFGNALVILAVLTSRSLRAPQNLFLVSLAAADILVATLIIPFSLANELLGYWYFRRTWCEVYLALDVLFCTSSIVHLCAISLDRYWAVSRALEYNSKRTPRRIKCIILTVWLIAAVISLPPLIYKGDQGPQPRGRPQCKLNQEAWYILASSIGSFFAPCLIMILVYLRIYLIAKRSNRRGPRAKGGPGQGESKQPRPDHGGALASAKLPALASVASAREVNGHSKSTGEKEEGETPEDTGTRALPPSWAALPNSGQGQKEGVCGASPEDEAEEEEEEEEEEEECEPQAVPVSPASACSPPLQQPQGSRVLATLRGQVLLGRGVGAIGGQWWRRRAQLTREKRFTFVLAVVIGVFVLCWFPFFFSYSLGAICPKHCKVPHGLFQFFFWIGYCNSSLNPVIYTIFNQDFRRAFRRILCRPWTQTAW
UniProt P50406, whole entry, looked up: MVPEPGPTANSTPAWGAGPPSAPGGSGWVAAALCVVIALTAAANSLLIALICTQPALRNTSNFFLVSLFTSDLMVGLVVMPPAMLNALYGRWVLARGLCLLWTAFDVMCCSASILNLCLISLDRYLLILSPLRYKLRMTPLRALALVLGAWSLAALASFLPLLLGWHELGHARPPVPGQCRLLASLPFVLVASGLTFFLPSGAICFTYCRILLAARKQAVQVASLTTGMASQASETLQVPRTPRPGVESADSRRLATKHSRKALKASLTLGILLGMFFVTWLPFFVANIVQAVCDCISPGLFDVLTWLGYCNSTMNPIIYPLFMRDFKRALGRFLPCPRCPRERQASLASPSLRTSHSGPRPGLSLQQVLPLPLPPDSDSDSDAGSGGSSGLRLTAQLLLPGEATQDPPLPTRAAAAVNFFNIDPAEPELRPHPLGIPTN
UniProt P08908, whole entry, looked up: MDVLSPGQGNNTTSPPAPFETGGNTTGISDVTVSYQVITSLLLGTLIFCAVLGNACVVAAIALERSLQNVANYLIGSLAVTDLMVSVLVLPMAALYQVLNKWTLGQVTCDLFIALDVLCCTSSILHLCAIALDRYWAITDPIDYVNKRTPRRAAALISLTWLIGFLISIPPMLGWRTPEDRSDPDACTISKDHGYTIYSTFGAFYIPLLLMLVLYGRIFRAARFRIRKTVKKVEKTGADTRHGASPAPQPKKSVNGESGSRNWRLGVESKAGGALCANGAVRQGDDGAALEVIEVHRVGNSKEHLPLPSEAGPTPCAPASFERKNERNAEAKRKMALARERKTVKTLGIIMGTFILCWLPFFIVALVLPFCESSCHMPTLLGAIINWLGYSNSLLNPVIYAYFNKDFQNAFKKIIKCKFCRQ
UniProt P28221: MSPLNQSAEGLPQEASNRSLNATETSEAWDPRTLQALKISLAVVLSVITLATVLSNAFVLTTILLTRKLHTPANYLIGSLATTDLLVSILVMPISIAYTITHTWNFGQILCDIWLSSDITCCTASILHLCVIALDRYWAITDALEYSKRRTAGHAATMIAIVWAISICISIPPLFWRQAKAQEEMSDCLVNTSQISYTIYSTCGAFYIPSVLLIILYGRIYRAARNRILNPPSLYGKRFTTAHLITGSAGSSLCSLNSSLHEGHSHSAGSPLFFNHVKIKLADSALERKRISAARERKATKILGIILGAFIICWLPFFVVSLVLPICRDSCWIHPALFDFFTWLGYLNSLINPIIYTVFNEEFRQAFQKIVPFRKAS
UniProt P31645, whole entry, looked up: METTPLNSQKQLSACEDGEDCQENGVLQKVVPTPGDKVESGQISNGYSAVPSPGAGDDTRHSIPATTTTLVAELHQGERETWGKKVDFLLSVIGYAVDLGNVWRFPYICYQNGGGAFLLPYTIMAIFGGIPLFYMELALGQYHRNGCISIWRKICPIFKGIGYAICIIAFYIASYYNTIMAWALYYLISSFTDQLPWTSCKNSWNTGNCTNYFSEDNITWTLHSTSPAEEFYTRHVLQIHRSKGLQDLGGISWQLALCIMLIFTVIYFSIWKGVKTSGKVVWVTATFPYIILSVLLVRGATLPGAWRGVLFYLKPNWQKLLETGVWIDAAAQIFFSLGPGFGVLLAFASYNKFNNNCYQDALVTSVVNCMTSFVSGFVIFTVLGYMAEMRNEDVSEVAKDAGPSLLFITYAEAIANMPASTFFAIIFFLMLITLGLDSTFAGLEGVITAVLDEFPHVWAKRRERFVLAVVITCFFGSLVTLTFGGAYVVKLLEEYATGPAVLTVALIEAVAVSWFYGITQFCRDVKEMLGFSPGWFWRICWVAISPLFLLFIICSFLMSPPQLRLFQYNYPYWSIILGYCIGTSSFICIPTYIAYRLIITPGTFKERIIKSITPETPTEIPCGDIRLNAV

Some targets named below: Mu-type opioid receptor (Homo sapiens, UniProt P35372); D(3) dopamine receptor (Homo sapiens, UniProt P35462); D(4) dopamine receptor (Homo sapiens, UniProt P21917); D(2) dopamine receptor (Homo sapiens, UniProt P14416); Histamine H1 receptor (Homo sapiens, UniProt P35367).
Test [1] concerns the target Sodium-dependent noradrenaline transporter (Homo sapiens, UniProt P23975).
Test [2] addresses 5-hydroxytryptamine receptor 2A (Homo sapiens, UniProt P28223).
For test [3], the target named is Sigma intracellular receptor 2 (Homo sapiens, UniProt Q5BJF2).
The target of test [4] is Alpha-2A adrenergic receptor (Homo sapiens, UniProt P08913).
Test [5] addresses 5-hydroxytryptamine receptor 7 (Homo sapiens, UniProt P34969).
For test [6], the target named is Alpha-1B adrenergic receptor (Homo sapiens, UniProt P35368).
The target of test [7] is Alpha-1D adrenergic receptor (Homo sapiens, UniProt P25100).
Test [8] concerns the target Alpha-2C adrenergic receptor (Homo sapiens, UniProt P18825).
Test [9] addresses Alpha-1A adrenergic receptor (Homo sapiens, UniProt P35348).
The target in test [10] is Kappa-type opioid receptor (Homo sapiens, UniProt P41145).
For test [11], the target named is 5-hydroxytryptamine receptor 5A (Homo sapiens, UniProt P47898).
In test [12] the target is Muscarinic acetylcholine receptor M5 (Homo sapiens, UniProt P08912). Briefly: PDSP Secondary Binding target: CHRM5 - Compounds are tested at 10 uM concentration, plate are incubated at room temperature in the dark for 90 minutes. Reaction are stopped by vacuum filtration onto 0.3% polyethyleneimine soaked filter mats using Filtermate harvester. Scintillation cocktail is then melted onto microwave-dried filters on a hot plate and the radio activity is counted in Microbia cou.

Test [13] has as its target Sodium-dependent dopamine transporter (Homo sapiens, UniProt Q01959).
Test [14] has as its target Beta-1 adrenergic receptor (Homo sapiens, UniProt P08588).
Test [15] concerns the target Alpha-2B adrenergic receptor (Homo sapiens, UniProt P18089).
For test [16], the target named is 5-hydroxytryptamine receptor 6 (Homo sapiens, UniProt P50406).
The target in test [17] is 5-hydroxytryptamine receptor 1A (Homo sapiens, UniProt P08908).
Test [18] addresses 5-hydroxytryptamine receptor 1D (Homo sapiens, UniProt P28221).
For test [19], the target named is Sodium-dependent serotonin transporter (Homo sapiens, UniProt P31645).

For `O=C1NCN(c2ccccc2)C12CCN(CC1COc3ccccc3O1)CC2` (centres undefined), the inhibition constant Ki in test [1] is 2.61 µM; at Mu-type opioid receptor, 0.0128 µM; on D(3) dopamine receptor, 0.00774 µM; on D(4) dopamine receptor it was 0.0194 µM; in [2], 0.702 µM; in [3], 1.01 µM. The inhibition constant Ki in test [4] turned out to be 0.617 µM; in [5] it was 0.0661 µM; in test [6], 0.319 µM; in [7] it was 0.139 µM; in [8], 0.00855 µM; in test [9] it was 0.446 µM. The inhibitory constant (Ki) in test [10] came to 0.711 µM; at D(2) dopamine receptor, 0.00671 µM; in [11], 3.8 µM.
As to `O=C1NCN(c2ccccc2)C12CCN(CCCOc1ccc(F)cc1)CC2`, the Ki in test [12] amounted to 1.31 µM; on D(3) dopamine receptor, 0.0328 µM; in test [13], 2.75 µM; on D(4) dopamine receptor, 0.00464 µM; in test [3] it was 0.899 µM; in test [14], 3.13 µM. Moreover, the Ki in test [15] amounted to 0.294 µM; in test [4], 2.28 µM; in test [16] it was 0.405 µM; in test [17] it was 0.389 µM; in [18], 1.29 µM; in test [5], 0.335 µM. The Ki stood at 0.296 µM in test [6]; 0.21 µM in test [19]; 0.382 µM in test [7]; 0.764 µM in test [8]; 0.405 µM in test [9]; 0.308 µM on Histamine H1 receptor. On D(2) dopamine receptor, this molecule registered an inhibition constant (Ki) of 0.00962 µM.

Broadly, the Ki is the dissociation constant of the complex between target and ligand, obtained from inhibition or displacement.
